## Antibody variant affinities, Ab-91 heavy chain, assay 2

The target is the same throughout: PDVDLGDISGINAS, from the HR2 region of SARS-CoV-2 spike.

Ab-91 is the parent antibody, in scFv form: VL, then three GGGGS repeats, then VH. The light chain is unchanged in all variants.
VL: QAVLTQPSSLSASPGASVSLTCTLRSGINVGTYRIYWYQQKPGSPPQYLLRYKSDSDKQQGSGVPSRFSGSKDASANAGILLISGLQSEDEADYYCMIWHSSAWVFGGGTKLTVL
VH: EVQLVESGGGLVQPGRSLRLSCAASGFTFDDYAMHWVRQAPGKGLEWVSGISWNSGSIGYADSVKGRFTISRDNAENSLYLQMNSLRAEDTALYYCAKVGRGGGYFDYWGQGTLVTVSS

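Variants in AAYL51 differ from the parent at up to three CDR positions; double and triple changes were sampled at random. AlphaSeq pools MATa yeast showing the antibodies with MATalpha yeast showing the peptide. Pairs that bind mate more often; barcode pairs of the diploids are counted by sequencing. A regression on co-assayed BCL2-family reference pairs converts the normalised counts of each replicate to an apparent Kd. Each pool was mated in three replicate cultures.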

Substitutions are numbered in sequence along the VH above, starting at 1 (not Kabat).
Numbers give log10(Kd / nM), so 0 is 1 nM and 3 is 1 µM. Smaller is tighter.
The mean shown is taken over the replicates in which the pair was detected.
A pair that was not seen in any replicate is written "no signal"; this usually means weak binding, but a binder can also be missed.
Three control strains display no target. For library AAYL51, 21% of the pairings with them gave a signal, with a median of 4.54 and one signal in twenty below 3.26, so weak values seen in few replicates may be background. The control count says in how many pairings with the empty strains this scFv gave a signal.

changes,mean log10 Kd (nM),replicates with signal,control signals
H35K+A61T+K65R,4.73,2 of 3,7 of 9
F29G+S57K+R101W,5.59,2 of 3,4 of 9
W53I+Y105H,2.94,3 of 3,3 of 9
S63E+R101I,1.61,3 of 3,1 of 9
G50S+S52D+Y60G,no signal,0 of 3,0 of 9
G26V+V64L+G104H,no signal,0 of 3,0 of 9
D31F+N54T+K65M,no signal,0 of 3,1 of 9
F29I+Y60I+K65G,3.70,3 of 3,1 of 9
F29H+G50F+I51Y,no signal,0 of 3,0 of 9
M34A+I51G+V99S,no signal,0 of 3,2 of 9
T28Y+I51M+G103P,no signal,0 of 3,4 of 9
Y32F+M34S+N54G,no signal,0 of 3,2 of 9
Y32H+I58R+Y60P,no signal,0 of 3,2 of 9
V64K+G103Q+D107E,no signal,0 of 3,1 of 9
G50V+V64W+G103E,no signal,0 of 3,0 of 9
T28A+W53E+F106I,no signal,0 of 3,0 of 9
G26S+H35A,5.27,2 of 3,1 of 9
Y32R+I58K,no signal,0 of 3,0 of 9
F29A+H35I+G50C,4.79,1 of 3,0 of 9
G26I+M34G+G100S,5.26,3 of 3,6 of 9
Y32A+I58R+G100K,2.32,3 of 3,0 of 9
G50M+G102S,no signal,0 of 3,0 of 9
I51N+G100K+G102A,no signal,0 of 3,3 of 9
V64C+K65A+F106M,no signal,0 of 3,0 of 9
G59E+V99A+G103C,2.61,3 of 3,3 of 9
D31M+W53Y+G56Y,1.37,3 of 3,2 of 9
T28H+F29K+G100R,no signal,0 of 3,2 of 9
G26C+S52V+R101V,no signal,0 of 3,1 of 9
S57Q+S63I+D107I,1.84,3 of 3,3 of 9
F29N+A33P+N54P,no signal,0 of 3,0 of 9
D31T+N54D+G103C,4.93,1 of 3,2 of 9
D31W+A33R+A61F,5.62,2 of 3,1 of 9
N54L+G56A+D62I,no signal,0 of 3,0 of 9
G50W+K65W+G104Y,3.76,1 of 3,1 of 9
F29C+A33C+A61V,4.37,1 of 3,3 of 9
G26V+Y60M+V99N,4.95,2 of 3,3 of 9
N54M+V64Y+G100S,no signal,0 of 3,1 of 9
F29T+A61N+D107Q,no signal,0 of 3,0 of 9
D31R+I51V+G59E,3.89,3 of 3,0 of 9
T28V+F29L+G50A,no signal,0 of 3,3 of 9
F29Q+M34Y+V99E,no signal,0 of 3,0 of 9
F27T+N54E+G56P,no signal,0 of 3,2 of 9
G50S+S52Y+N54E,5.05,2 of 3,2 of 9
S55R+G102M,4.68,2 of 3,4 of 9
M34Y+N54P+S55D,4.75,1 of 3,0 of 9
A61C+K65N+D107T,5.70,1 of 3,2 of 9
F27G+T28W+Y105G,3.73,3 of 3,3 of 9
M34I+G102W+Y105S,no signal,0 of 3,0 of 9
Y32M+G50K+F106W,no signal,0 of 3,0 of 9
D62M+V99T+G100K,2.96,3 of 3,0 of 9
D30H+S55R+K65L,4.66,1 of 3,4 of 9
D62C+K65Y+Y108D,3.16,3 of 3,4 of 9
Y32G+N54V+V64Y,4.91,3 of 3,3 of 9
D31T+S63V+G100N,5.54,2 of 3,2 of 9
N54I+G102F+G104L,4.00,1 of 3,0 of 9
N54S+G56S+K65S,1.51,3 of 3,4 of 9
T28C+S55E+S63W,3.39,3 of 3,2 of 9
G26N+G50P,6.26,1 of 3,4 of 9
F27H+G100P,5.83,1 of 3,4 of 9
G26N+S63G+Y105A,5.15,2 of 3,3 of 9
D31L+M34P+K65W,5.83,1 of 3,1 of 9
N54E+D62P+Y105A,3.19,3 of 3,0 of 9
F29N+V64N+R101G,no signal,0 of 3,1 of 9
G26V+M34P+Y105C,5.73,2 of 3,4 of 9
G26N+G56F+Y108M,no signal,0 of 3,0 of 9
H35M+S52T+I58N,3.88,1 of 3,2 of 9
F27T+T28V+Y108P,no signal,0 of 3,0 of 9
F29A+S52D+A61H,no signal,0 of 3,0 of 9
D30V+W53L+F106W,4.39,1 of 3,2 of 9
F29R+Y32A+I51S,4.69,1 of 3,2 of 9

The last 11 entries again:

changes,mean log10 Kd (nM),replicates with signal,control signals
G26N+S63G+Y105A,5.15,2 of 3,3 of 9
D31L+M34P+K65W,5.83,1 of 3,1 of 9
N54E+D62P+Y105A,3.19,3 of 3,0 of 9
F29N+V64N+R101G,no signal,0 of 3,1 of 9
G26V+M34P+Y105C,5.73,2 of 3,4 of 9
G26N+G56F+Y108M,no signal,0 of 3,0 of 9
H35M+S52T+I58N,3.88,1 of 3,2 of 9
F27T+T28V+Y108P,no signal,0 of 3,0 of 9
F29A+S52D+A61H,no signal,0 of 3,0 of 9
D30V+W53L+F106W,4.39,1 of 3,2 of 9
F29R+Y32A+I51S,4.69,1 of 3,2 of 9

Reference: Engelhart et al. 2022, doi:10.1038/s41597-022-01779-4. File: FLAb, binding data.